Measured values as given in ChEMBL document CHEMBL4321821, “Opioids as Substrates and Inhibitors of the Genetically Highly Variable Organic Cation Transporter OCT1” (J Med Chem, 2019).

Experiments:
[1] = Ratio of unbound maximal portal vein concentration in human at 450 mg, po to inhibition of human OCT1 expressed in HEK293 cells assessed as reduction in ASP+ substrate uptake by microplate reader based analysis; format: ADME, organism-based; conditions: in vivo
[2] = Ratio of unbound Cmax in human at 450 mg, po to inhibition of human OCT1 expressed in HEK293 cells assessed as reduction in ASP+ substrate uptake by microplate reader based analysis; format: ADME, organism-based; conditions: in vivo
OCT1 (SLC22A1) [3] = target: T1, OCT1 (SLC22A1) (Homo sapiens, UniProt O15245); test: (§1) Substrate activity at human OCT1 expressed in HEK293 cells assessed as increase in compound uptake at 0.1 uM incubated for 2 mins by LC-MS/MS analysis relative to control empty vector transfected cells; format: cell-based; conditions: HEK293 cells that express human OCT1, read-out: FC
T1 sequence (O15245 whole entry): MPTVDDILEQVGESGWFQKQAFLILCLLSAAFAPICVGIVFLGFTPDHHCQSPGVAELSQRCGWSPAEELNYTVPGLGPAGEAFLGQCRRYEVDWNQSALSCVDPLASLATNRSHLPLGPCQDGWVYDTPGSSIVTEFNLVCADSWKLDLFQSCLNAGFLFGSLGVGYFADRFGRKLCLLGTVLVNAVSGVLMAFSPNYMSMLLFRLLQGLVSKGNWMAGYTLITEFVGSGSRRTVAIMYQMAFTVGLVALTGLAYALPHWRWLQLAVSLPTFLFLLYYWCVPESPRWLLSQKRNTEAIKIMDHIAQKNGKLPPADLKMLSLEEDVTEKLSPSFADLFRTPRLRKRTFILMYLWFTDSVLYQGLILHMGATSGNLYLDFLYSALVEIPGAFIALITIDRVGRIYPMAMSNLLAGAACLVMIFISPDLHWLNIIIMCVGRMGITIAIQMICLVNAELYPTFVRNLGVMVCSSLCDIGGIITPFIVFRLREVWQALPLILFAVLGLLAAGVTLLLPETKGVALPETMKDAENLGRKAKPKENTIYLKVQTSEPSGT

OCT1 (SLC22A1) [4] = target: T1, OCT1 (SLC22A1); test: (§2) Substrate activity at human OCT1 expressed in HEK293 cells assessed as increase in compound uptake at 0.5 uM incubated for 2 mins by LC-MS/MS analysis relative to control empty vector transfected cells; format: cell-based; conditions: HEK293 cells that express human OCT1, read-out: FC
[5] = target: T2, Solute carrier family 22 member 1 (Homo sapiens, UniProt O15245); test: Substrate activity at OCT1 in primary human hepatocytes assessed as increase in compound uptake at 1 uM incubated for 2 mins by LC-MS/MS analysis relative to control; format: cell-based
T2 sequence (O15245 whole entry): T1 sequence (O15245 whole entry)

OCT1 (SLC22A1) [6] = target: T1, OCT1 (SLC22A1); test: (§3) Substrate activity at human OCT1 expressed in HEK293 cells assessed as increase in compound uptake at 0.05 uM incubated for 2 mins by LC-MS/MS analysis relative to control empty vector transfected cells; format: cell-based; conditions: HEK293 cells that express human OCT1, read-out: FC
[7] = target: T2, Solute carrier family 22 member 1; test: Substrate activity at OCT1 in primary human hepatocytes assessed as increase in compound uptake at 0.1 uM incubated for 2 mins by LC-MS/MS analysis relative to control; format: cell-based
[8] = target: T2, Solute carrier family 22 member 1; test: as §1; format: cell-based; conditions: hek293, 2 min, 0.1 µM
[9] = target: T2, Solute carrier family 22 member 1; test: as §2; format: cell-based; conditions: hek293, 2 min, 0.5 µM
[10] = target: T2, Solute carrier family 22 member 1; test: as §3; format: cell-based; conditions: hek293, 2 min, 0.05 µM

Row | SMILES | Ratio [1] | Ratio [2] | uptake ratio at 2 min, 0.1 µM (OCT1 (SLC22A1) [3]) | uptake ratio at 2 min, 0.5 µM (OCT1 (SLC22A1) [4]) | fold change (FC) [5] | uptake ratio at 2 min, 0.05 µM (OCT1 (SLC22A1) [6]) | fold change (FC) [7] | fold change (FC) [8] | fold change (FC) [9] | fold change (FC) [10]
1 | C[N+]1(CC2CC2)CC[C@]23c4c5ccc(O)c4O[C@H]2C(=O)CC[C@@]3(O)[C@H]1C5 (stereo not given in full) [METHYLNALTREXONE] | 0.277 | 0.0005 | 67.9 to 86 | 85.9 | 5.9 | 32.4 | 7.7 |  |  | 
2 | CN1CC[C@]23c4c5ccc(O)c4O[C@H]2[C@@H](O)C=C[C@H]3[C@H]1C5 [MORPHINE] |  |  |  |  |  |  |  | 5.1 | 4.3 | 4.6
